Like-named read-outs stand apart in the source and are kept apart here.
Target: Protein Kinase C beta 2 (PKCβII) (Homo sapiens (Human), UniProt P05771)
Assay: PKCβII coupled PK/LDH spectrophotometric kinase assay
Assay type: biochemical
Details: read-out: PKCb Ki
[1] = apparent Ki, ATP-competitive model (Morrison equation), 0.1 mM ATP, 30° C.

Protein sequences, listed by entry. Tags and fused reporters are not part of them. Chains listed by the source or under a name are the forms on record and can include a tag or linker. Residues count along the entry.
UniProt P05771, 1-621 with tags or gaps limits assumed: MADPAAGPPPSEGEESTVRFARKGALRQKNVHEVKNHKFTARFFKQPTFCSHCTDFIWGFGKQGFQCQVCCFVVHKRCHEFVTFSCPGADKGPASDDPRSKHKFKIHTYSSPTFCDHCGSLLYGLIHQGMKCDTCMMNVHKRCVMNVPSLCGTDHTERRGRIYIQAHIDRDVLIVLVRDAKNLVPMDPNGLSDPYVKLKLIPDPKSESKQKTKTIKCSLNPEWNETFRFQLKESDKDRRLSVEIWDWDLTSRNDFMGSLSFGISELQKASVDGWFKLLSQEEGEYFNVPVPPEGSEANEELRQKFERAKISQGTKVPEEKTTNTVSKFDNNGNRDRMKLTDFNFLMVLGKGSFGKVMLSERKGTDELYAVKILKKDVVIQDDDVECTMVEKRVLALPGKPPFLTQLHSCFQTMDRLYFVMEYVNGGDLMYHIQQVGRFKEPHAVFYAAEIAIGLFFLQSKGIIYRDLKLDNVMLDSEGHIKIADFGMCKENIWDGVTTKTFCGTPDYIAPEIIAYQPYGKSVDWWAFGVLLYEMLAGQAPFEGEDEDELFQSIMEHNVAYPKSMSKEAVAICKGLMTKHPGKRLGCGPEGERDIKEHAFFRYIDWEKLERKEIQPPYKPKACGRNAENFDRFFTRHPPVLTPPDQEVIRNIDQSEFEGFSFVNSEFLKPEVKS

Work on `CCCCN1C[C@H](C)N(C(=O)N2Cc3c(NC(=O)c4ccc(F)cc4F)n[nH]c3C2(C)C)C[C@H]1C` (relative stereo) yielded a Ki [1] of 54.9 nM.
`C[C@@H]1CN(C(=O)N2Cc3c(NC(=O)c4ccc(Cl)cn4)n[nH]c3C2(C)C)[C@@H](C)CN1CC1CCOCC1` gave a Ki [1] of 11.9 nM.
Compound `C[C@@H]1CN(C(=O)N2Cc3c(NC(=O)c4cn(C5CCC5)cn4)n[nH]c3C2(C)C)[C@@H](C)CN1CC1CCOCC1` has a Ki [1] of 14.1 nM.
For `C[C@@H]1CN(C(=O)N2Cc3c(NC(=O)c4ccc(F)cc4)n[nH]c3C2(C)C)[C@@H](C)CN1CC1CCOCC1`, the Ki [1] was 11.2 nM.
`Cc1ocnc1C(=O)Nc1n[nH]c2c1CN(C(=O)N1C[C@@H](C)N(CC3CCOCC3)C[C@@H]1C)C2(C)C` was tested, and the Ki [1] was 117 nM.
`COCCCN1C[C@H](C)N(C(=O)N2Cc3c(NC(=O)c4ccccn4)n[nH]c3C2(C)C)C[C@@H]1C` showed a Ki [1] of 143 nM.
In the case of `C[C@@H]1CN(C(=O)N2Cc3c(NC(=O)c4ccc(F)cc4F)n[nH]c3C2(C)C)[C@@H](C)CN1C1CCC1` (relative stereo), the Ki [1] is reported as 74.2 nM.
For `CCn1ccc(C(=O)Nc2n[nH]c3c2CN(C(=O)N2C[C@@H](C)N(CC4CCOCC4)C[C@@H]2C)C3(C)C)n1`, the Ki [1] was 26.9 nM.
Work on `C[C@@H]1CN(C(=O)N2Cc3c(NC(=O)c4ccccn4)n[nH]c3C2(C)C)[C@@H](C)CN1C` (relative stereo) yielded a Ki of 28.2 nM.
`CCc1nc(C(=O)Nc2n[nH]c3c2CN(C(=O)N2C[C@@H](C)N(CC4CCOCC4)C[C@@H]2C)C3(C)C)co1` was tested, and the Ki [1] was 14.9 nM.
Work on `Cc1cccc(C(=O)Nc2n[nH]c3c2CN(C(=O)N2C[C@@H](C)N(CC4CCOCC4)C[C@@H]2C)C3(C)C)n1` yielded a Ki [1] of 15 nM.
`COc1cccc(C(=O)Nc2n[nH]c3c2CN(C(=O)N2C[C@@H](C)N(CC4CCOCC4)C[C@@H]2C)C3(C)C)n1` gave a Ki [1] of 46.7 nM.
With `CCCN1C[C@H](C)N(C(=O)N2Cc3c(NC(=O)c4ccc(F)cc4F)n[nH]c3C2(C)C)C[C@H]1C` (relative stereo) the Ki was 87.3 nM.
In the case of `COCCCN1C[C@H](C)N(C(=O)N2Cc3c(NC(=O)c4ccccn4)n[nH]c3C2(C)C)C[C@H]1C`, the Ki [1] is reported as 19.5 nM.
`CCCN1C[C@H](C)N(C(=O)N2Cc3c(NC(=O)c4ccccn4)n[nH]c3C2(C)C)C[C@H]1C` showed a Ki of 14.6 nM.
`CCCN1C[C@H](C)N(C(=O)N2Cc3c(NC(=O)c4ccccn4)n[nH]c3C2(C)C)C[C@@H]1C` gave a Ki of 52.5 nM.
With `CCN1C[C@H](C)N(C(=O)N2Cc3c(NC(=O)c4ccc(F)cc4F)n[nH]c3C2(C)C)C[C@H]1C` (relative stereo) the Ki [1] was 83.1 nM.
`C[C@@H]1CN(C(=O)N2Cc3c(NC(=O)c4cncn4C)n[nH]c3C2(C)C)[C@@H](C)CN1CC1CCOCC1` gave a Ki [1] of 47.9 nM.
Work on `CO[C@@H]1CN2C[C@H](C)N(C(=O)N3Cc4c(NC(=O)c5ccccn5)n[nH]c4C3(C)C)C[C@@H]2C1(C)C` yielded a Ki of 177 nM.
For `Cc1cccc(C(=O)Nc2n[nH]c3c2CN(C(=O)N2C[C@@H](C)N(CC4CCOCC4)C[C@@H]2C)C3(C)C)c1`, the Ki [1] was under 10 nM.
In the case of `C[C@@H]1CN(C(=O)N2Cc3c(NC(=O)c4coc(C5CC5)n4)n[nH]c3C2(C)C)[C@@H](C)CN1CC1CCOCC1`, the Ki is reported as 15.7 nM.
In the case of `C[C@@H]1CN(C(=O)N2Cc3c(NC(=O)c4cccc(C#N)c4)n[nH]c3C2(C)C)[C@@H](C)CN1CC1CCOCC1`, the Ki [1] is reported as 25.6 nM.
`COc1ccc(C(=O)Nc2n[nH]c3c2CN(C(=O)N2C[C@@H](C)N(CC4CCOCC4)C[C@@H]2C)C3(C)C)nc1` showed a Ki [1] of under 10 nM.
Compound `COCCCN1C[C@H](C)N(C(=O)N2Cc3c(NC(=O)c4ccccn4)n[nH]c3C2(C)C)C[C@H]1C` (relative stereo) has a Ki [1] of 23.8 nM.
`CN1CCN(C(=O)N2Cc3c(NC(=O)c4ccccc4)n[nH]c3C2(C)C)[C@@H](Cc2ccccc2)C1` showed a Ki [1] of 189 nM.
For `CCCN1C[C@H](C)N(C(=O)N2Cc3c(NC(=O)c4ccccn4)n[nH]c3C2(C)C)C[C@H]1C` (relative stereo), the Ki [1] was 39.5 nM.
Work on `C[C@@H]1CN(C(=O)N2Cc3c(NC(=O)c4ccccn4)n[nH]c3C2(C)C)[C@@H](C)CN1CC1CC1` (relative stereo) yielded a Ki [1] of 19.1 nM.
`COCCCN1C[C@H](C)N(C(=O)N2Cc3c(NC(=O)c4ccc(F)cc4F)n[nH]c3C2(C)C)C[C@H]1C` (relative stereo) showed a Ki of 131 nM.
`CC1(C)c2[nH]nc(NC(=O)c3ccccc3F)c2CN1C(=O)N1C[C@@H]2CCCN2C[C@@H]1Cc1ccccc1` gave a Ki [1] of 53.2 nM.
Work on `Cc1ccc(C(=O)Nc2n[nH]c3c2CN(C(=O)N2C[C@@H](C)N(CC4CCOCC4)C[C@@H]2C)C3(C)C)nc1` yielded a Ki of 26.4 nM.
Compound `C[C@@H]1CN(C(=O)N2Cc3c(NC(=O)c4ccc(C#N)cc4)n[nH]c3C2(C)C)[C@@H](C)CN1CC1CCOCC1` has a Ki [1] of 24.3 nM.
`C[C@@H]1CN(C(=O)N2Cc3c(NC(=O)c4cccc(F)c4)n[nH]c3C2(C)C)[C@@H](C)CN1CC1CCOCC1` gave a Ki [1] of under 10 nM.
Work on `C[C@@H]1CN(C(=O)N2Cc3c(NC(=O)c4ccccc4)n[nH]c3C2(C)C)[C@@H](C)CN1CC1CCOCC1` yielded a Ki [1] of 30.1 nM.
`C[C@@H](CO)CN1C[C@H](C)N(C(=O)N2Cc3c(NC(=O)c4ccccn4)n[nH]c3C2(C)C)C[C@H]1C` showed a Ki of 49.6 nM.
For `Cc1nc(C(=O)Nc2n[nH]c3c2CN(C(=O)N2C[C@@H](C)N(CC4CCOCC4)C[C@@H]2C)C3(C)C)cs1`, the Ki [1] was 12.8 nM.
Work on `C[C@@H]1CN(C(=O)N2Cc3c(NC(=O)c4ccc(F)cc4F)n[nH]c3C2(C)C)[C@@H](C)CN1CC1CC1` (relative stereo) yielded a Ki [1] of 68.9 nM.
Work on `CCCCN1C[C@H](C)N(C(=O)N2Cc3c(NC(=O)c4ccccn4)n[nH]c3C2(C)C)C[C@H]1C` yielded a Ki [1] of 13.3 nM.
Compound `Cc1ccccc1C(=O)Nc1n[nH]c2c1CN(C(=O)N1C[C@@H](C)N(CC3CCOCC3)C[C@@H]1C)C2(C)C` has a Ki [1] of 67.1 nM.
With `Cc1ccnc(C(=O)Nc2n[nH]c3c2CN(C(=O)N2C[C@@H](C)N(CC4CCOCC4)C[C@@H]2C)C3(C)C)c1` the Ki [1] was 21.7 nM.
Compound `C[C@@H]1CN(C(=O)N2Cc3c(NC(=O)c4ccc(F)cn4)n[nH]c3C2(C)C)[C@@H](C)CN1CC1CCOCC1` has a Ki [1] of 12.8 nM.
`CC(C)n1cnc(C(=O)Nc2n[nH]c3c2CN(C(=O)N2C[C@@H](C)N(CC4CCOCC4)C[C@@H]2C)C3(C)C)c1` showed a Ki [1] of 23.8 nM.
Compound `CC(C)N1C[C@H](C)N(C(=O)N2Cc3c(NC(=O)c4ccccn4)n[nH]c3C2(C)C)C[C@H]1C` (relative stereo) has a Ki of 69.2 nM.
With `CCN1C[C@H](C)N(C(=O)N2Cc3c(NC(=O)c4ccccn4)n[nH]c3C2(C)C)C[C@@H]1C` the Ki [1] was 149 nM.
In the case of `C[C@H](CO)CN1C[C@H](C)N(C(=O)N2Cc3c(NC(=O)c4ccccn4)n[nH]c3C2(C)C)C[C@H]1C`, the Ki is reported as 50.4 nM.
Work on `C[C@@H]1CN(C(=O)N2Cc3c(NC(=O)c4ccc(F)cc4F)n[nH]c3C2(C)C)[C@@H](C)CN1CC1CCCC1` (relative stereo) yielded a Ki [1] of 81.3 nM.
With `C[C@@H]1CN(C(=O)N2Cc3c(NC(=O)c4ccccn4)n[nH]c3C2(C)C)[C@@H](C)CN1CC1CC1` the Ki [1] was 13.3 nM.
